Compounds with a hit are over-represented: about 2.3% of the library has one in this group of screens.
Nrf2 inh: inhibitors of Nrf2 signaling; A549 ARE-Fluc reporter, luciferase luminescence, 18-24 h; Potency, µM (highest dose often 46 µM), without a hit: at the top dose activity change, negative = inhibition, hits mostly inhibitors; hit rate 2.1% among 360,000; AID 504444; note: potency is the fitted concentration of half-maximal effect; % is set by controls: 0 for no effect and ±100 for the full control effect; nearly all actives have a fitted effect of over 60% in size
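Cells were seeded and rested 2 h, then exposed to compounds for 18-24 h. CellTiter-Fluor was read first as a viability measure. BugLite was added 15 min before the final luminescent read of ARE-luciferase activity in A549 cells.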
miR-21 FLuc: raises the signal of a miR-21 reporter | HeLa miR-21 FLuc reporter, luciferase, 48 h | Potency, µM (doses to about 38.3 µM), without a hit: at the top dose reporter change, positive = more light | 340,000 tested, under 10 active | AID 2288; active = well fitted rising curve with a large enough effect; inconclusive = small, poorly fitted or top-dose-only effect; inactive = no such curve, though single readings can be large or run the other way;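 note: % of control where 0% means no effect; miR-21 action dims this reporter so a rising signal means less miR-21 action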
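HeLa miR-21-FLuc reporter line, endogenous miR-21; 2000 cells/well in DMEM/10% FBS; compound titration up to ~40uM final, 48 h, 37 degree Celsius; luciferase detection reagent, 15 min lysis, CCD luminescence.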
A549 viability: counter-screen for Nrf2 inhibitors: cytotoxicity in A549 cells. A549 ARE-Fluc cells, CellTiter-Fluor viability, 18-24 h. Potency, µM (series often up to 46 µM), for inactives: at the top dose activity change, negative = cytotoxicity, most hits filed as inhibitors. hit rate 0.16% among 390,000. AID 504648; note: potency is the fitted concentration of half-maximal effect; % is set by controls: 0 for no effect and ±100 for the full control effect
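A549 ARE-Fluc cells in 5% FBS OPTI-MEM, 5000 cells/well, rested 2 h then exposed to compounds in concentration-response for 18-24 h at 37 °C. Viability by CellTiter-Fluor fluorescence (Ex 405/Em 525) after 30 min; luciferase luminescence (BugLite, 15 min, RT) read afterwards.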
Mito fusion act: inhibitors of mitochondrial division or activators of mitochondrial fusion; S. cerevisiae fusion-defective mutant growth rescue, CellTiterGlo 48 h; Potency, µM (doses to about 46.1 µM), without a hit: top-dose growth rescue (activation), most hits filed as activators; hit rate 0.23% among 320,000; note: potency is the fitted concentration of half-maximal effect; % of control where 0% means no effect; nearly all actives have a fitted effect of over 45% in size
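Growth-rescue viability read-out: after 48 h at the non-permissive 37C in glycerol/ethanol YPEG, yeast mitochondrial fusion mutants are measured by CellTiterGlo luminescence; compounds (23 nl pinned per well) restoring growth score as division inhibitors or fusion activators.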
Nrf2 activator: activates Nrf2 signaling; AREc32 ARE-luciferase reporter (MCF7-derived line), luminescence, 24 h; Potency, µM (highest dose often 46.1 µM), for the others: at the top dose activation, usual class: activators; hit rate 0.31% among 410,000; AID 624171; note: potency is the fitted concentration of half-maximal effect; % of control where 0% means no effect; nearly all actives have a fitted effect of over 65% in size
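Steps: seed AREc32_Fluc cells (1000/well, 5% FBS OPTI-MEM); incubate overnight at 37 deg C; add 23 nL compound; incubate 24 hr; add Steady-Glo; hold 30 min RT; read luminescence.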
* marks the source's active call; other numbers are inactive results; ? = inconclusive; / = not tested or not shown. Unless noted, calls come from the whole dose curve; as a rule, active = well fitted curve in the direction sought with a large enough effect; inconclusive = small, poorly fitted or top-dose-only effect, or another doubt; inactive = no such curve, though single readings can be large; an effect the other way counts as inactive or inconclusive.

Codes: A = Nrf2 inh; B = miR-21 FLuc; C = A549 viability; D = Mito fusion act; E = Nrf2 activator
(1) CC(=O)NC(CCS(C)(=O)=O)C(=O)Nc1cc(Cl)ccc1Cl (stereo unspecified)
  A: 0.5%; B: -6.8%; C: 0.7%; D: 0.0%; E: -0.6%

(2) CC(C)S(=O)(=O)c1csc(NC(=O)Nc2cc(Cl)ccc2Cl)c1Cl
  A: 18.4µM*; B: -1.4%; C: -18.8%; D: 16.3%; E: -1.0%

(3) CCOc1ccc(-n2c(N)c(C(=O)NCc3ccco3)c3nc4ccccc4nc32)cc1
  A: 21.3%; B: -5.8%; C: 6.2%; D: 0.5%; E: 11.2µM*

(4) Nc1c(C(=O)NCc2ccco2)c2nc3ccccc3nc2n1CCc1ccccc1
  A: ?; B: ?; C: 5.1%; D: ?; E: 0.8%

(5) Cc1ccc2onc(CC(=O)N3CCN(c4ccc(F)cc4)CC3)c2c1
  A: 16.4µM*; B: 11.8%; C: ?; D: /; E: 0.2%

(6) Cc1nc2scc(-c3ccccc3)c2c(=O)n1N
  A: -9.7%; B: -0.6%; C: -2.3%; D: -0.3%; E: 0.5%

(7) Cc1nc2scc(-c3ccccc3)c2c(=O)n1N=C1C=CC(=O)C=C1
  A: -12.7%; B: -63.1%; C: -9.7%; D: -1.0%; E: 10µM*

(8) Cc1ccc(C)c(N2CCN(C(=O)CCCN3C(=S)NC(C)(C)CC3C)CC2)c1 (stereo unspecified)
  A: 16.4µM*; B: 20.8%; C: -4.7%; D: -3.1%; E: -0.9%

(9) COc1ccc(C(C)=O)cc1CSc1nnc(Nc2ccccc2C)s1
  A: ?; B: -7.4%; C: 12.7%; D: ?; E: 2.4%

(10) COc1ccc(C(C)=O)cc1CSc1nnc(Nc2ccc(C)cc2C)s1
  A: -27.1%; B: -12.4%; C: -0.1%; D: 15.8µM*; E: 1.6%

(11) O=C(CSc1nc(=O)n(Cc2ccncc2)c2c1CCC2)Nc1ccc(F)cc1F
  A: /; B: -0.8%; C: 11.8%; D: /; E: 0.4%

(12) O=S(=O)(Nc1nc2ccccc2nc1N1CCN(c2ccccc2F)CC1)c1ccc(Cl)cc1
  A: 23.1µM*; B: -6.6%; C: ?; D: 14.8%; E: -0.6%

(13) O=C(O)CCn1cc(/C=C2/NC(=S)N(c3ccccc3)C2=O)c(-c2ccccc2)n1
  A: -2.6%; B: 3.5%; C: -18.0%; D: -2.3%; E: -0.6%

(14) N#CCCn1cc(/C=C2\NC(=S)N(c3ccccc3)C2=O)c(-c2ccc(-c3ccccc3)cc2)n1
  A: 18.4µM*; B: 1.0%; C: 20.6µM*; D: 3.6%; E: 0.5%

(15) COc1ccc(C23CC4CC(CC(C4)C2)C3)cc1C(=O)NCCN(C)C
  A: -13.1%; B: 28.1%; C: 0.9%; D: -13.3%; E: -4.1%

Overlap with the part before: 3 entries; new compounds follow.
Codes: A = Nrf2 inh; B = miR-21 FLuc; C = A549 viability; D = Mito fusion act; E = Nrf2 activator
(13) O=C(O)CCn1cc(/C=C2/NC(=S)N(c3ccccc3)C2=O)c(-c2ccccc2)n1
  A: -2.6%; B: 3.5%; C: -18.0%; D: -2.3%; E: -0.6%

(14) N#CCCn1cc(/C=C2\NC(=S)N(c3ccccc3)C2=O)c(-c2ccc(-c3ccccc3)cc2)n1
  A: 18.4µM*; B: 1.0%; C: 20.6µM*; D: 3.6%; E: 0.5%

(15) COc1ccc(C23CC4CC(CC(C4)C2)C3)cc1C(=O)NCCN(C)C
  A: -13.1%; B: 28.1%; C: 0.9%; D: -13.3%; E: -4.1%

(16) CN(C)CCNC(=O)c1ccccc1
  A: 7.2%; B: -1.1%; C: -8.8%; D: -0.2%; E: 3.0%

(17) CN(C)CCNC(=O)c1cccc2ccc(-c3ccc(-c4ccccc4)cc3)nc12
  A: -15.7%; B: /; C: ?; D: /; E: 4.47µM*

(18) COc1ccc(OC)c2nc3c(C(=O)NCCN(C)C)cccc3nc12
  A: 5.8µM*; B: /; C: 16.4µM*; D: /; E: -0.2%

(19) CN(C)CCNC(=O)c1cccc2nc3cccc(F)c3nc12
  A: 4.61µM*; B: /; C: 10.3µM*; D: /; E: -0.4%

(20) O=C(NC1CCCCCC1)c1ccc(CS(=O)c2cccc(Cl)c2)o1 (stereo unspecified)
  A: -3.0%; B: -0.2%; C: 9.5%; D: /; E: 3.0%

(21) O=C(NC(c1ccc(Cl)cc1)c1c(O)ccc2ccccc12)c1ccccc1 (stereo unspecified)
  A: 11.6µM*; B: ?; C: ?; D: 19.0%; E: 9.3%

(22) O=C(NC(c1ccccc1)c1c(O)ccc2ccccc12)c1ccccc1Cl (stereo unspecified)
  A: ?; B: -2.6%; C: ?; D: -2.5%; E: 0.4%

(23) CCCCC(=O)NC(c1ccc([N+](=O)[O-])cc1)c1c(O)ccc2ccccc12 (stereo unspecified)
  A: ?; B: 18.8%; C: ?; D: -9.5%; E: 18.7%

(24) CCC(=O)NC(c1ccc([N+](=O)[O-])cc1)c1c(O)ccc2ccccc12 (stereo unspecified)
  A: 16.4µM*; B: 16.6%; C: ?; D: -9.8%; E: 0.3%

(25) Cc1cc2c(NC3CCCCC3)ncnc2s1
  A: 11.6µM*; B: 14.3%; C: -12.4%; D: -6.9%; E: 3.2%

(26) Cc1cc2c(SCC(=O)NC3CCCCC3)ncnc2s1
  A: ?; B: -1.9%; C: -15.8%; D: 1.6%; E: -0.5%

(27) O=C(Nc1cccc(F)c1)c1ccco1
  A: 9.4%; B: -27.5%; C: -3.4%; D: 5.3%; E: 10µM*

(28) COc1c(C)cc(Br)cc1C(=O)Nc1cccc(NC(=O)c2ccco2)c1
  A: ?; B: 27.7%; C: -7.7%; D: 20µM*; E: -0.7%

(29) COc1ccccc1NC(=O)c1ccc(C(=O)c2ccccc2)o1
  A: -10.1%; B: -30.4%; C: 2.3%; D: -3.4%; E: 6.5%

(30) COc1ccc(Br)cc1C(=O)Nc1cccc(NC(=O)c2ccco2)c1
  A: ?; B: 14.6%; C: 11.4%; D: ?; E: 0.1%

(31) CC(=O)Nc1nc2c(F)cccc2s1
  A: ?; B: /; C: -0.7%; D: /; E: 0.4%
